Here are results for one molecule from patent US11197863B2, “Inhibitors of polo-like kinase 4 (PLK4) for treating pediatric embryonal tumors” (ANN AND ROBERT H. LURIE CHILDREN'S HOSPITAL OF CHICAGO, priority 2017, dated 2021).

One may read the IC50 as the concentration needed to halve the response being measured. Read a low IC50 as greater potency in that assay.

This test deals with T1, AURKC (Homo sapiens, UniProt Q9UQB9).
T1 sequence (Q9UQB9 1-309): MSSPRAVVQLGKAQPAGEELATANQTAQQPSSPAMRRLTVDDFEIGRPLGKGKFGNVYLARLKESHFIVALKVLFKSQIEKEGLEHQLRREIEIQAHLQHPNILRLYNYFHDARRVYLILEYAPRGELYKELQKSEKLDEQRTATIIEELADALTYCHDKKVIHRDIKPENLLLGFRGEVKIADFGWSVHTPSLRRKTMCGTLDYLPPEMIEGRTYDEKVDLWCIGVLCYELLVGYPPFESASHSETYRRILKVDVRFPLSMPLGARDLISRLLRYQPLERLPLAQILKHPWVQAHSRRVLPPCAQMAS
The experiment in a line: Kinase activity screening (SelectScreen Kinase Profiling). It is filed as biochemical. The settings on record: 10-point titration.

`COc1ccc2c(c1)[C@]1(C[C@H]1c1ccc3c(/C=C/c4ccc(CN5C[C@@H](C)O[C@@H](C)C5)cc4)n[nH]c3c1)C(=O)N2` [CFI-400945]: half-maximal inhibition (IC50) was put at 106 nM.
